# Patent EP0920324B1, “PURE BIOLOGICALLY ACTIVE COLISTIN, ITS COMPONENTS AND A COLISTIN FORMULATION FOR TREATMENT OF PULMONARY INFECTIONS” (PATHOGENESIS CORPORATION, priority 1996, dated 1998)
# Assay: Solution pH monitored over time after dissolution
# Format: physicochemical
# Conditions: freshly dissolved in water at 10.0, 15.0 and 20.0 mg/ml
# Method: Acidic stability of the colimycin solution was determined according to Example 11. Briefly, colimycin (405 mg) was freshly dissolved in water to achieve 10.0 mg/ml, 15.0 mg/ml, and 20.0 mg/ml solutions. These values correspond to concentrations of 3.7 mg/ml, 5.6 mg/ml and 7.4 mg/ml colistin base equivalent. Solution pH was monitored continuously at various times from 1 minute to 180 minutes and pH values and times were recorded.
# Determination of component IV stability at physiologic pH was made by dissolving purified colistin component IV sulfate or hydrochloride at a concentration of 20 mg/ml in sterile water containing 120 mM NaCl. The solution was mixed and pH was monitored. A 10 N NaOH solution was used to adjust the solution pH to 6.95-7.00. Results are seen in Figure 16.
# The pH of freshly dissolved colimycin was determined by weighing a freshly opened vial of Coly-Mycin M Parenteral, Parke-Davis, lot# 01966P, containing 405 mg into 20 ml glass screwcap scintillation vials and adding an appropriate volume of sterile irrigation water to achieve 10.0 mg/ml, 15.0 mg/ml, and 20.0 mg/ml solutions. […] Solution pH was then monitored continuously using a Beckman Phi-10 pH meter fitted with a Beckman Futura Plus combination electrode calibrated at pH 4.0 and 7.0 as per manufacturer's instructions prior to use. At various times from 1 minute to 180 minutes, pH values and times were recorded.
substance,measurement,value
colimycin,starting pH of solution,6.80
